Measurements taken from PubChem BioAssay AID2648 (Johns Hopkins Ion Channel Center, 2010).
The entries are a selection whose mix differs from that of the whole data set. Active and inactive are the calls of the source.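 Rule for the calls: active = fluorescence ratio B-score, a plate-corrected score, at least three library SD, with initial intensity B-score within 5 SD; inactive = the rest.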

By UniProt entry, the sequences of proteins in these tests, tags left out.
UniProt P51787, whole entry: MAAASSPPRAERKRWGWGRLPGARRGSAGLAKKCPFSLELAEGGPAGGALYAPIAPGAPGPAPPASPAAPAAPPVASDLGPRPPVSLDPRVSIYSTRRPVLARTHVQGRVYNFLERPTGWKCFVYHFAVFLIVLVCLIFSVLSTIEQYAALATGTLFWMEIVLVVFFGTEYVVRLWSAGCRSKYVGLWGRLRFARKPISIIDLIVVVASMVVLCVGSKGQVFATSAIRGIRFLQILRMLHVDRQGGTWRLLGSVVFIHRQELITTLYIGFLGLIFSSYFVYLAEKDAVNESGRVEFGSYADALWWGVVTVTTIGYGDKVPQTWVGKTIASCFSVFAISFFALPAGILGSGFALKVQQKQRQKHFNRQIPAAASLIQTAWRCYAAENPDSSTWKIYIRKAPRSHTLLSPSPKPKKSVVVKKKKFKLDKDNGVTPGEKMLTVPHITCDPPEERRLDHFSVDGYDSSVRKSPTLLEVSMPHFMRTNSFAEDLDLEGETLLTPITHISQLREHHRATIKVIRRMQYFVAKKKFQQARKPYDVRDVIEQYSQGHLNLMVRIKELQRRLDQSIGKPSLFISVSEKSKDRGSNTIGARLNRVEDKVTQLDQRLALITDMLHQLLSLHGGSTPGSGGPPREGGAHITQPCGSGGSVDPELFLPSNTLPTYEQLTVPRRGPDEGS

target: Potassium voltage-gated channel subfamily KQT member 1 (Homo sapiens) (UniProt P51787); assay: human KCNQ1 current enhancers – cell-based, thallium flux, high-throughput, primary screen (AID 2648); conditions: CHO-K1 KCNQ1, thallium flux FluxOR fluorescence; at 10 µM

SMILES | outcome
CS(=O)(=O)c1cc([N+](=O)[O-])c2no[n+]([O-])c2c1 | inactive
O=P(Nc1nccs1)(c1ccccc1)c1nc2ccccc2s1 (configuration not stated) | inactive
O=P(Nc1nccs1)(Oc1ccccc1)Oc1ccccc1 | inactive
CCOP1(=S)c2c(C)nn(CCC#N)c2N=C(c2ccccc2F)N1C (configuration not stated) | inactive
O=C(O)c1cccc(Nc2c([N+](=O)[O-])cc([N+](=O)[O-])cc2[N+](=O)[O-])c1 | inactive
Nc1ccccc1[As](=O)(O)c1ccccc1 | inactive
O=C(O)COc1ccc([As](=O)(O)O)cc1[N+](=O)[O-] | inactive
NC(=O)Nc1ccc([As](=O)(O)O)cc1 | inactive
CN(C(=O)Cc1ccc(Cl)c(Cl)c1)[C@H]1CC[C@@]2(CCCO2)C[C@@H]1N1CCCC1 | inactive
CC1=NCCc2c1[nH]c1ccccc21.O=[N+]([O-])c1cc([N+](=O)[O-])c(O)c([N+](=O)[O-])c1 | inactive
CN(C)C(=O)c1cc([N+](=O)[O-])cc2c1-c1c(cc([N+](=O)[O-])cc1[N+](=O)[O-])C2=O | inactive
O=[N+]([O-])c1ccc2c(c1)nnn2O | inactive
CCOP1(=S)c2c(C)nn(CCC#N)c2N=C(c2ccc(F)cc2)N1C (configuration not stated) | inactive
CN(C(=O)Cc1ccccc1)[C@@H]1CC[C@]2(CCCO2)C[C@H]1N1CCCC1 | inactive
N#CCCN(C(=O)COC(=O)C(O)(c1ccccc1)c1ccccc1)c1ccc(F)cc1 | inactive
CS(=O)(=O)c1ccc(Cl)c(NC(=O)COC(=O)C(O)(c2ccccc2)c2ccccc2)c1 | inactive
COc1ccccc1OP(C)(=O)Nc1cccc(Br)c1 (configuration not stated) | inactive
COc1cc(C(=O)NCC2(N3CCOCC3)CCCCC2)cc(Cl)c1OC(C)C | inactive
O=[As](O)(O)c1cccnc1 | inactive

SMILES | outcome
O=C(OC1CN2CCC1CC2)c1ccc(Cl)cc1 (configuration not stated) | inactive
CCOC(=O)c1ccc(NP(C)(=O)Oc2cc(C)cc(C)c2)cc1 (configuration not stated) | inactive
Cc1cc(C)cc(OP(C)(=O)Nc2ccc(C)cc2C)c1 (configuration not stated) | inactive
O=[As](O)(c1cccc(O)c1)c1cccc(O)c1 | inactive
Cc1cccc(OCC(=O)OC2CN3CCC2CC3)c1 (configuration not stated) | inactive
CCCOP(=S)(Nc1nc(N)cc(=O)[nH]1)OCCC | inactive
Cc1ccc(C)c(NP(C)(=O)Oc2ccccc2)c1 (configuration not stated) | inactive
Nc1cccc2c([As](=O)(O)O)cccc12 | inactive
Cc1ccc(NCCc2c([N+](=O)[O-])cc([N+](=O)[O-])cc2[N+](=O)[O-])cc1 | inactive
CP(=O)(Nc1cccc(Br)c1)Oc1ccccc1 (configuration not stated) | inactive
Cc1cc(C)cc(OP(C)(=O)Nc2ccccn2)c1 (configuration not stated) | inactive
CCOP(=O)(Nc1cccc2ccccc12)OCC | inactive
CN(CCCl)Cc1cc(Cl)c(NC2=NCCN2)c(Cl)c1 | inactive
CCOP(=O)(Nc1ccc(C)cn1)OCC | inactive
CCOP(=O)(NC(=NC(C)c1ccccc1)NC(C)c1ccccc1)OCC (configuration not stated) | inactive
O=[N+]([O-])c1cc([N+](=O)[O-])c(-n2nnc3ccccc32)c([N+](=O)[O-])c1 | inactive
O=P1(Nc2ccccn2)COc2ccccc2OC1 | inactive
CCC1=CC2Cc3nc4ccc(Cl)cc4c(N)c3C(C1)C2 (configuration not stated) | inactive
CC(C)(C)C(=O)NC(Sc1ncccn1)C(Cl)(Cl)Cl (configuration not stated) | inactive

SMILES | outcome
Clc1n[nH]nc1-c1nn[nH][15n]1 | inactive
COc1ccccc1CNC(=O)COC(=O)C(O)(c1ccccc1)c1ccccc1 | inactive
O=[N+]([O-])c1cc([N+](=O)[O-])c(-c2cnn(-c3ccccc3)c2)c([N+](=O)[O-])c1 | inactive
CC1(CBr)Cn2c(nc3ccccc3c2=O)S1 (configuration not stated) | inactive
O=[As](O)(c1ccccc1Br)c1ccccc1Br | inactive
CC(C)/C=N\N=C(\N)N[N+](=O)[O-] | inactive
CN(C(=O)Cc1ccc(Cl)c(Cl)c1)[C@@H]1CCCC[C@H]1N1CCCC1 | inactive
COc1cc(C2NCCC3(OCCO3)C2(C)C)cc(OC)c1OC.O=[N+]([O-])c1cc([N+](=O)[O-])c(O)c([N+](=O)[O-])c1 (configuration not stated) | inactive
CC1CCC(C(C)C)C(OP(=O)(Nc2ccccn2)c2ccccc2)C1 (configuration not stated) | inactive
Cc1ccc(C(=O)OC2CN3CCC2CC3)cc1 (configuration not stated) | inactive
Cc1nn(-c2ccccc2)c2c1P(=O)(N1CCOCC1)N(C)C(c1ccccc1)=N2 (configuration not stated) | inactive
O=C(/C=C/c1ccccc1)OC1CN2CCC1CC2 (configuration not stated) | inactive
CCOC(=O)C(CC)C1=NC(C)(C)Cc2ccccc21.O=[N+]([O-])c1cc([N+](=O)[O-])c(O)c([N+](=O)[O-])c1 (configuration not stated) | inactive
O=[N+]([O-])c1cc([N+](=O)[O-])c(Nc2nnnn2CCO)c([N+](=O)[O-])c1 | inactive
CN(C)C1(CNC(=O)c2ccc(S(C)(=O)=O)cc2)CCCCC1 | inactive
O=P1(Nc2ncccn2)COc2ccccc2OC1 | inactive
COc1ccccc1OP(C)(=O)Nc1c(C)cccc1C (configuration not stated) | inactive
CN1CCCCC1COC(=O)C1(O)c2ccccc2CCc2ccccc21 (configuration not stated) | inactive
O=P1(Nc2ccc(Br)cn2)COc2ccccc2OC1 | inactive
